# Measured values reported in patent US5736376A, “Recombinant endothelin converting enzyme-2 and its use in ECE inhibitor screening” (Board of Regents, The University of Texas System, priority 1995, dated 1998).
# Key:
# [1] = target: T1, ECE-1 (Bos taurus, UniProt P42891); test: Protease inhibitor assay of ECE-1, solubilized CHO/ECE-1 membranes, big ET-1 conversion, pH 6.8; assay type: biochemical, bovine; details: in vitro
# T1 construct: made in house
# T1 sequence (P42891 1-754): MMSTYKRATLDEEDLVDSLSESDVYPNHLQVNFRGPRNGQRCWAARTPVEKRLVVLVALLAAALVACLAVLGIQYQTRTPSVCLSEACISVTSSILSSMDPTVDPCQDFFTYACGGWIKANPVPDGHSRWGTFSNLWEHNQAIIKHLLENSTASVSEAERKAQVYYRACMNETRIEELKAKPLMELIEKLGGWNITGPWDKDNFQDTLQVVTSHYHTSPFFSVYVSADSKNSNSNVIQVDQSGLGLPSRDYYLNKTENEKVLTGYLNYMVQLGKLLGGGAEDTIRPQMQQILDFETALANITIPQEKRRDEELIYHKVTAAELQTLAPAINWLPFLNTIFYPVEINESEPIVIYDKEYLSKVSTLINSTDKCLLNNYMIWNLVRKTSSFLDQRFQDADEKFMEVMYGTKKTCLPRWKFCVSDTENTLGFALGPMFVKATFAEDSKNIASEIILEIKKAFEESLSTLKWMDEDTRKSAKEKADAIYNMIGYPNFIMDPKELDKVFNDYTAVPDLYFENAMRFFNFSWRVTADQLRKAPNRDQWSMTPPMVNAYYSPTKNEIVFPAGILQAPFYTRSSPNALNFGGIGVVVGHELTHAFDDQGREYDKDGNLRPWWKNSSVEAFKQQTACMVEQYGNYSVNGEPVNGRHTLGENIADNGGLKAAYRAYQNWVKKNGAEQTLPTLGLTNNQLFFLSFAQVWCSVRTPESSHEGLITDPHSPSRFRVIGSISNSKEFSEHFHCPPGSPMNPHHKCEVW
# [2] = target: T1, ECE-1; test: Double-transfection live cell assay: CHO/ECE-1 cells with preproET-1; assay type: cell-based, bovine; details: parallel double-transfection assay
# Description: To examine whether ECE-2 can convert big ET-1 in a physiological context in transfected cells, a double-transfection assay was used (Xu et al., 1994). CHO/ECE-2 cells and untransfected CHO cells were transiently transfected in parallel with a preproET-1 construct, and mature ET-1 secreted from these cells into the medium was determined by EIA.
# These observations indicate that ECE-2 is processing big ET-1 inside the cells, where these inhibitors have limited access.
# CHO-K1 cells were cultured as described (Xu et al., 1994). Since many batches of tissue culture-grade trypsin preparations contained high levels of metalloprotease contaminants with an ECE-like activity, a highly purified crystallized preparation of trypsin (Sigma, Catalog No. T7418) was dissolved in phosphate-buffered saline at 0.013% (w/v) and used for all trypsinization procedures. The coding region of bovine ECE-2 cDNA was subcloned into pME18Sf- expression vector (Sakamoto et al., 1993). Stable transfection of CHO cells and isolation of the transfectant clones, as well as transient transfection of human preproET-1 cDNA was performed as described (Xu et al., 1994). Twelve hours after the transient transfection, cells were refed with fresh medium with or without ECE inhibitors. The medium was conditioned for an additional 12 h and directly subjected to enzyme immunoassay (EIA) for mature ET-1 (Suzuki et al., 1989).
# [3] = target: T1, ECE-1; test: Coculture of CHO/ECE-1 and CHO/preproET-1 cells: cleavage of exogenously supplied big ET-1; assay type: cell-based, bovine; details: coculture 24 h with CHO/preproET-1; read-out: IC50, production of mature ET-1, CHO/ECE-1 coculture
structure (smiles),measurement,setting,value
CC(C)C[C@H](NP(=O)(O)O[C@@H]1O[C@@H](C)[C@H](O)[C@@H](O)[C@H]1O)C(=O)N[C@@H](Cc1c[nH]c2ccccc12)C(=O)O [Phosphoramidon],IC50,[1],1 µM
same,IC50,[2],> 200 µM
same,IC50,[3],~1 µM
